# Experimental data reported in PMC10117637, “Differences in tissue distribution ability of evodiamine and dehydroevodiamine are due to the dihedral angle of the molecule stereo-structure” (Frontiers in Pharmacology, 2023).
# “And” between values parts separate entries of the source, which are not always exact repeats. Equal values may be shown once. “Also recorded” adds a separate entry of the source. Read-outs that look alike come from different tables or passages of the source.
# Key:
# [1] = Tissue distribution and PK after tail vein injection; type: in vivo, mice
# Method: The mixture was then transferred to a sterile centrifuge tube after being repeatedly ground for 30 min with a tiny amount of ordinary saline added. After that, saline was added and ultrasonically processed for 1 h. In a vacuum freeze drier, the suspension was freeze-dried for 30 h. To make the injection, the freeze-dried powder was ultimately redissolved in regular saline. After acclimatization, all mice were acclimated before being randomly placed into four groups of three each: EDM (H) group, EDM (L) group, DEDM (H) group, DEDM (L) group. […] Supernatant plasma from the collected sample was transferred into another tube and kept at −80°C until analysis after being centrifuged at 3,000 rpm for 10 min. Immediately after blood was obtained, the mice were dissected. Saline was injected into the heart until the liver turned white. […] The calibration standards, tissue samples, and plasma samples were pretreated with acetonitrile for protein precipitation. […] To remove the denatured protein, the mixture was vortexed for 1 min and then centrifuged at 16,500 rpm for 10 min. The supernatant was finally injected into the LC-MS/MS in an aliquot of 100 µL for analysis. […] Using an isocratic elution, the EDM and DEDM were analyzed. […] With a flow rate of 0.3 mL/min, the ratio between A and B was 20: 80 for 4 min. The column temperature was kept at 35°C. Prior to injection, samples were transferred in an auto-sampler at a temperature of 4°C and 5 µL was the injection volume. […] The ion source was electrospray ionization (ESI) and adopts positive ion mode. The scan mode was multiple reaction monitoring (MRM). The operating conditions for the EDM and DEDM were 4000 V capillary voltage. The dry gas flow was 11 min per liter, and the dry gas temperature was 300°C. […] Acetonitrile was used to prepare standard stock solutions for each type of EDM and DEDM individually. By diluting the standard stock solutions serially with acetonitrile, working standards for the EDM and DEDM were made. The calibration curve samples were acquired by spiking the series working standard solutions (10 μL) into a tube and evaporating the solvent, and then adding blank mouse tissue homogenate or plasma (100 μL). […] DEDM is used as an internal standard compound when detecting EDM. Meanwhile, when DEDM is detected, EDM is used as the internal standard compound. The final concentration of the internal standard compound is 10 ng/mL. […] For the Non-compartmental PK analysis, Thermo Kinetica (Version 5.0, Thermo Electron Corporation, Waltham, MA) was employed. Based on observed data, the time when the maximum tissue concentration was reached (Tmax) and the maximum tissue concentration (Cmax) were assessed. […] Additionally, the mean residence time (MRT) was computed. PK parameters are reported as the mean of […]. Linear and non-linear regressions were analyzed in Microsoft Excel 2016® (United States).
# Caco-2 cells = experiment: Cell viability assay (MTT), nontoxic concentration; type: cell-based, human; conditions: 48 h
# Method: The cytotoxicity of EDM and DEDM was assessed in Caco-2 cells using the aforementioned MTT test. These alkaloids were produced as solutions in DMSO and then diluted in cell culture media. Inoculating Caco-2 cells (1 × 10^4cells/well) in 96-well plates with 200 μL of media. After additional 48 h of incubation with EDM and DEDM (final test alkaloids concentrations ranged from 0.4 to 200 μM, and DMSO was less than 0.05%), the medium was discarded. To each well, an aliquot of 190 μL freshly prepared DMEM (serum-free) having 10.0 μL MTT (5 mg/mL) was added. The medium in every well was then removed from the plate after a further 4 h at 37°C of incubation. In 100 μL of DMSO, the purple formazan product was dissolved. Using a microplate reader, the ratio of absorbance (treated to untreated cells) at 490 nm was employed to measure cell viability.
# Caco-2 cell monolayers [2] = conditions: pH 7.4
# [3] = parameters: method as in Lin et al., 2012; conditions: ref Lin et al., 2012; cited from earlier work
# liver [4] = tested on: liver; parameters: method as in Li et al., 2019; conditions: long-term toxicity experiments, production of AST, LDH, ALT, ALP; ref Li et al., 2019; cited from earlier work
# liver [5] = tested on: liver; parameters: method as in Zhang Y. et al., 2018; conditions: C57BL/6 N mice, 80 mg/kg orally; ref Zhang Y. et al., 2018; cited from earlier work
# Caco-2 cell monolayers [6] = experiment: Caco-2 cell transport assay (Papp, efflux ratio); conditions: Caco-2 monolayers
# [7] = Blood, 2.5 mg/kg tail vein, mice, average
# [8] = Blood, 5 mg/kg tail vein, mice, average
# [9] = Brain, 2.5 mg/kg tail vein, mice, average
# [10] = Brain, 5 mg/kg tail vein, mice, average
# [11] = Heart, 2.5 mg/kg tail vein, mice, average
# [12] = Heart, 5 mg/kg tail vein, mice, average
# [13] = Kindy, 2.5 mg/kg tail vein, mice, average
# [14] = Kindy, 5 mg/kg tail vein, mice, average
# [15] = Liver, 2.5 mg/kg tail vein, mice, average
# [16] = Liver, 5 mg/kg tail vein, mice, average
# [17] = Lung, 2.5 mg/kg tail vein, mice, average
# [18] = Lung, 5 mg/kg tail vein, mice, average
# [19] = Spleen, 2.5 mg/kg tail vein, mice, average
# [20] = Spleen, 5 mg/kg tail vein, mice, average
compound,measurement,setting,value
C[n+]1c2n(c(=O)c3ccccc31)CCc1c-2[nH]c2ccccc12 [dehydroevodiamine],AUC0-∞,"[1]; mouse, in vivo, 5 mg/kg",1.36 µg·h/g
same,MRT,"[1]; mouse, in vivo, 5 mg/kg",4.38 h
evodiamine,Nontoxic concentration,Caco-2 cells,12.5 µM
same,AUC0-t,[1]; [7],0.08 µg·h/g
same,AUC0-∞,[1]; [7],0.19 µg·h/g
same,Cmax,[1]; [7],0.019 µg/g
same,MRT,[1]; [7],23.50 h
same,T1/2,[1]; [7],17.30 h
same,Tmax,[1]; [7],0.25 h
same,AUC0-t,[1]; [8],0.25 µg·h/g
same,AUC0-∞,[1]; [8],0.56 µg·h/g
same,Cmax,[1]; [8],0.125 µg/g
same,MRT,[1]; [8],23.77 h
same,T1/2,[1]; [8],19.51 h
same,Tmax,[1]; [8],0.25 h
same,AUC0-t,[1]; [9],0.45 µg·h/g
same,AUC0-∞,[1]; [9],0.70 µg·h/g
same,Cmax,[1]; [9],0.057 µg/g
same,MRT,[1]; [9],11.30 h
same,T1/2,[1]; [9],6.53 h
same,Tmax,[1]; [9],6.00 h
same,Cmax,[1]; [10],0.110 µg/g
same,MRT,[1]; [10],6.00 h
same,Tmax,[1]; [10],4.00 h
same,AUC0-t,"[1]; Brain, 5 mg/kg tail vein, mice, average, 5 mg/kg",1.10 µg·h/g
same,AUC0-t,"[1]; Brain, 5 mg/kg tail vein, mice, average, listed as EDM, 5 mg/kg",1.1 µg·h/g
same,AUC0-t,[1]; [11],0.68 µg·h/g
same,Cmax,[1]; [11],0.097 µg/g
same,MRT,[1]; [11],6.02 h
same,Tmax,[1]; [11],0.25 h
same,Cmax,[1]; [12],0.176 µg/g
same,MRT,[1]; [12],6.36 h
same,Tmax,[1]; [12],6.00 h
same,AUC0-t,"[1]; Heart, 5 mg/kg tail vein, mice, average, 5 mg/kg",1.66 µg·h/g
same,AUC0-t,"[1]; Heart, 5 mg/kg tail vein, mice, average, listed as EDM, 5 mg/kg",1.16 µg·h/g
same,AUC0-t,[1]; [13],1.48 µg·h/g
same,AUC0-∞,[1]; [13],1.80 µg·h/g
same,Cmax,[1]; [13],0.481 µg/g
same,MRT,[1]; [13],6.98 h
same,T1/2,[1]; [13],4.63 h
same,Tmax,[1]; [13],1.50 h
same,Cmax,[1]; [14],0.332 µg/g
same,MRT,[1]; [14],5.56 h
same,Tmax,[1]; [14],0.25 h
same,AUC0-t,"[1]; Kindy, 5 mg/kg tail vein, mice, average, 5 mg/kg",2.04 µg·h/g
same,AUC0-t,[1]; [15],5.99 µg·h/g
same,AUC0-∞,[1]; [15],10.19 µg·h/g
same,Cmax,[1]; [15],0.792 µg/g
same,MRT,[1]; [15],13.97 h
same,T1/2,[1]; [15],9.66 h
same,Tmax,[1]; [15],0.25 h
same,AUC0-t,[1]; [16],37.94 µg·h/g
same,AUC0-∞,[1]; [16],58.48 µg·h/g
same,Cmax,[1]; [16],10.128 µg/g
same,MRT,[1]; [16],11.57 h
same,T1/2,[1]; [16],8.84 h
same,Tmax,[1]; [16],0.25 h
same,AUC0-t,[1]; [17],445.42 µg·h/g
same,AUC0-∞,[1]; [17],1676.98 µg·h/g
same,Cmax,[1]; [17],45.866 µg/g
same,MRT,[1]; [17],38.32 h
same,T1/2,[1]; [17],26.42 h
same,Tmax,[1]; [17],6.00 h
same,AUC0-t,[1]; [18],986.45 µg·h/g
same,AUC0-∞,[1]; [18],"3,159.59 μg/g*h"
same,Cmax,[1]; [18],113.757 µg/g
same,MRT,[1]; [18],31.88 h
same,T1/2,[1]; [18],22.05 h
same,Tmax,[1]; [18],0.75 h
same,AUC0-t,[1]; [19],41.71 µg·h/g
same,AUC0-∞,[1]; [19],71.73 µg·h/g
same,Cmax,[1]; [19],7.473 µg/g
same,MRT,[1]; [19],13.73 h
same,T1/2,[1]; [19],9.30 h
same,Tmax,[1]; [19],0.50 h
same,AUC0-t,[1]; [20],38.41 µg·h/g
same,AUC0-∞,[1]; [20],74.00 µg·h/g
same,Cmax,[1]; [20],8.140 µg/g
same,MRT,[1]; [20],16.53 h
same,T1/2,[1]; [20],11.73 h
same,Tmax,[1]; [20],0.25 h
same,time to maximum plasma concentration (Cmax),"[1]; mice, plasma, tail vein injection",≤ 15 min
same,Papp,Caco-2 cell monolayers [2],1 ×10⁻⁶ cm/s and ~1 ×10⁻⁶ cm/s and ≥ 1 ×10⁻⁶ cm/s
same,oral bioavailability,[3],0.1%
same,hepatotoxicity,liver [4],highly hepatotoxic
same,hepatotoxicity,liver [5],no discernible hepatotoxicity
same,permeability class,Caco-2 cell monolayers [6]; from Papp level,medium permeability
same,"bidirectional transport comparison, secretory (basolateral→apical) vs absorptive (apical→basolateral) permeability",Caco-2 cell monolayers [6]; listed as EDM,nearly equal; also recorded: nearly comparable
